Experimental data from BindingDB's records for doi:10.7270/Q2SX6GDH (n/a, 1996).

Amino acid sequences for entries named in this document (tags omitted).
UniProt P08908, whole entry: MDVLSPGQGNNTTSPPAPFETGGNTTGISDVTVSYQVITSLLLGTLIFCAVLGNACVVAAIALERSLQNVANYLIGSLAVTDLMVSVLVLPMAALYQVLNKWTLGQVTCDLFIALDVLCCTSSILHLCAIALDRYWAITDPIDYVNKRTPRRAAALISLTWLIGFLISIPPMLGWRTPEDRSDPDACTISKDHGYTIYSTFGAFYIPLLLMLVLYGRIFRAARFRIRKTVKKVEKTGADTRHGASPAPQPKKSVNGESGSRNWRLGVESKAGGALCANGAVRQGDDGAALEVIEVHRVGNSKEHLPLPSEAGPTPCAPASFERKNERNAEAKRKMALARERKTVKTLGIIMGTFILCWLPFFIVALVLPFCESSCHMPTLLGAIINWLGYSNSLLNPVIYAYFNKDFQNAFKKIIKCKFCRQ
UniProt P14842, whole entry: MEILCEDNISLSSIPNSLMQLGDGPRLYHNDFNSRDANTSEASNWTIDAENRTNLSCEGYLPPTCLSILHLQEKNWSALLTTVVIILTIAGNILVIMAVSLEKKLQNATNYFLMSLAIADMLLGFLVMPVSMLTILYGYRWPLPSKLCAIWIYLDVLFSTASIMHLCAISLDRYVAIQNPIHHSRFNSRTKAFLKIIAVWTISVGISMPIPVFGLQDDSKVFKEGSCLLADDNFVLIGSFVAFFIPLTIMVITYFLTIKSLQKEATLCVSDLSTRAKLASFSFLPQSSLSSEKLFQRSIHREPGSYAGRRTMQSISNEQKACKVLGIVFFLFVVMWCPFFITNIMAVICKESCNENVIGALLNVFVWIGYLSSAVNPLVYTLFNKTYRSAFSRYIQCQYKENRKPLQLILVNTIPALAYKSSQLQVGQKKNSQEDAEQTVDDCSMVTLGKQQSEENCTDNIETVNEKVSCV

Legend:
[1] = molecular target: 5-hydroxytryptamine receptor 1A (Homo sapiens, UniProt P08908); test: ChEBML_1074
Procedure: Compound was tested for its ability to displace [3H]8-OH-DPAT from 5-hydroxytryptamine 1A receptor in pig cortex

[2] = molecular target: 5-hydroxytryptamine receptor 2A (Rattus norvegicus, UniProt P14842); test: ChEBML_2582
Procedure: Compound was tested for its ability to displace [3H]DOB from 5-hydroxytryptamine 2A receptor in rat cortex homogenates

IC50 [1]: 540 nM
IC50 [2]: > 10000 nM
SMILES: CNS(=O)(=O)Cc1ccc2[nH]cc(CCN(C)C)c2c1 [Sumax]
